Experimental data: PMC3882203 (Bioorganic & medicinal chemistry letters, 2013)

The chains behind the UniProt entries cited, without tags or fusion partners. Residues count along the entry.
UniProt P36544, 23-502: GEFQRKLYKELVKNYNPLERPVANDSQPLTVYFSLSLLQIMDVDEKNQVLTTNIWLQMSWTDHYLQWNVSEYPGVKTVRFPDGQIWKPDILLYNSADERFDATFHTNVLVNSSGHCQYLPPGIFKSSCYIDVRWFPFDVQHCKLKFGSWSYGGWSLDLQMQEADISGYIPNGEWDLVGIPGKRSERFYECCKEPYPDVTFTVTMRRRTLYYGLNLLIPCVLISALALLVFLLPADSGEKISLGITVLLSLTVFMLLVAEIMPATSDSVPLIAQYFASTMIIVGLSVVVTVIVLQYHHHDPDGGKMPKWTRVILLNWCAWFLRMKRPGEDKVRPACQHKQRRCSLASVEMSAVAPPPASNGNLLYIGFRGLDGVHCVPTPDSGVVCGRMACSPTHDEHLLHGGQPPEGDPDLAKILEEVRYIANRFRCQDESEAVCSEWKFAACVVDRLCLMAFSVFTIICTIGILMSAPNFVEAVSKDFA

Molecular target: α7 nicotinic acetylcholine receptor (α7 nAChR) (Homo sapiens, UniProt P36544)

CCN1C[C@]2(COC(=O)c3ccccc3N3C(=O)C[C@H](C)C3=O)CC[C@H](OC)[C@@]34[C@@H]5C[C@H]6[C@H](OC)[C@@H]5[C@](O)(C[C@@H]6OC)[C@](O)([C@@H](OC)[C@H]23)[C@@H]14 [MLA]
% block at 100 nM: 100
